The subject of the test is DOT-T1E-PhoA5 mutant. As to the kind of experiment: Halo-inhibition test with antibiotic disks on minimal medium. The class given is cell-based, Pseudomonas putida. As to conditions: for tolerance/sensitivity to antibiotic: mutant, Halo-inhibition test; for size of the inhibition halo: strain PhoA5, 6-mm disks, µg per disk as, minimal medium.

For the compound `O=C(N[C@H](CO)[C@H](O)c1ccc([N+](=O)[O-])cc1)C(Cl)Cl` [CAM, chloramphenicol], the “tolerance/sensitivity to antibiotic” value is given as “tolerant”.
Take `O=C(O)c1cn(C2CC2)c2cc(N3CCNCC3)c(F)cc2c1=O` [CIP, ciprofloxacine]: the “tolerance/sensitivity to antibiotic” value was “sensitive” and the “size of the inhibition halo” value turned out to be 40 mm.
Take `CO/N=C(\C(=O)N[C@@H]1C(=O)N2C(C(=O)O)=C(COC(C)=O)CS[C@H]12)c1csc(N)n1` [CTX, cefotaxime]: the “tolerance/sensitivity to antibiotic” value is recorded as “sensitive” and the “size of the inhibition halo” value is 30 mm.
Turning to `C[C@@H](O)[C@H]1C(=O)N2C(C(=O)O)=C(SCCN=CN)C[C@H]12` [IPM, imipenen], the “tolerance/sensitivity to antibiotic” value was “sensitive” and the “size of the inhibition halo” value is 45 mm.
In the same order, the values of `CCn1cc(C(=O)O)c(=O)c2ccc(C)nc21` [NA, nalidixic acid] are “equally sensitive” and 15 mm.
In the same order, the values of `CCn1cc(C(=O)O)c(=O)c2cc(F)c(N3CCNCC3)cc21` [NOR, norfloxacine] are “sensitive” and 30 mm.
The corresponding values for `CCN1CCN(C(=O)N[C@@H](C(=O)N[C@@H]2C(=O)N3[C@@H]2SC(C)(C)[C@@H]3C(=O)O)c2ccccc2)C(=O)C1=O` [PIP, piperacillin] are “equally sensitive” and 19 mm.
As for `[H]/N=C(/N)N[C@H]1[C@H](O)[C@@H](O)[C@H](O[C@@H]2O[C@@H](C)[C@](O)(C=O)[C@H]2O[C@@H]2O[C@@H](CO)[C@H](O)[C@@H](O)[C@@H]2NC)[C@@H](N/C(N)=N\[H])[C@@H]1O` [SM, streptomycin], the “tolerance/sensitivity to antibiotic” value is listed as “equally sensitive”.
Still for that read-out and setting: to `CC1(C)S[C@@H]2[C@H](NC(=O)[C@H](N)c3ccccc3)C(=O)N2[C@H]1C(=O)O` [ampicillin] belongs “tolerant”; to `CC[C@H]1OC(=O)[C@H](C)[C@@H](O[C@H]2C[C@@](C)(OC)[C@@H](O)[C@H](C)O2)[C@H](C)[C@@H](O[C@@H]2O[C@H](C)C[C@H](N(C)C)[C@H]2O)[C@](C)(O)C[C@@H](C)C(=O)[C@H](C)[C@@H](O)[C@]1(C)O` [erythromycin], “tolerant”.
Take `CN[C@H](CC(C)C)C(=O)N[C@H]1C(=O)N[C@@H](CC(N)=O)C(=O)N[C@H]2C(=O)N[C@H]3C(=O)N[C@H](C(=O)N[C@H](C(=O)O)c4cc(O)cc(O)c4-c4cc3ccc4O)[C@H](O)c3ccc(c(Cl)c3)Oc3cc2cc(c3O[C@@H]2O[C@H](CO)[C@@H](O)[C@H](O)[C@H]2O[C@H]2C[C@](C)(N)[C@H](O)[C@H](C)O2)Oc2ccc(cc2Cl)[C@H]1O` [vancomycin]: the “tolerance/sensitivity to antibiotic” value is “tolerant”.
gentamycin [GM]: the “tolerance/sensitivity to antibiotic” value is “equally sensitive” and the “size of the inhibition halo” value is on record as 16 mm.
